Test: Glutathione reactivity assessed as thiol reactivity rate constant at 250 uM up to 72 hrs by HPLC-MS or NMR analysis
Format: physicochemical
Parameters: unit not given beside the values
Method in brief: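 Fragment 250 µM mixed with 5 mM glutathione in PBS pH 7.4 containing 5% acetonitrile, with 100 µM indoprofen as internal standard. For fragments not detectable at 250 µM, levels were reversed (5 mM fragment, 250 µM GSH). HPLC-MS at 0–72 h. Internal-standard-corrected AUCs were fitted by OLS linear regression. k_GSH = k_eff − k_deg, and t1/2 = ln2/k_GSH.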

SMILES | K
N#Cc1ccncn1 | 0.0147
C#Cc1ncccn1 | 0.0148
N#Cc1ncco1 | 1.4615
Ic1ccncc1 | 0.01
N#Cc1ncc[nH]1 | 0.0132
N#Cc1cocn1 | 0.693
N#Cc1nccs1 | 0.0868
